This passage reports Selectivity ratio results from ChEMBL document CHEMBL1142710, “3D-QSAR comparative molecular field analysis on opioid receptor antagonists: pooling data from different studies” (J Med Chem, 2005).

Chains of the proteins cited; added tags and fusions are not shown.
UniProt P33533, whole entry, looked up: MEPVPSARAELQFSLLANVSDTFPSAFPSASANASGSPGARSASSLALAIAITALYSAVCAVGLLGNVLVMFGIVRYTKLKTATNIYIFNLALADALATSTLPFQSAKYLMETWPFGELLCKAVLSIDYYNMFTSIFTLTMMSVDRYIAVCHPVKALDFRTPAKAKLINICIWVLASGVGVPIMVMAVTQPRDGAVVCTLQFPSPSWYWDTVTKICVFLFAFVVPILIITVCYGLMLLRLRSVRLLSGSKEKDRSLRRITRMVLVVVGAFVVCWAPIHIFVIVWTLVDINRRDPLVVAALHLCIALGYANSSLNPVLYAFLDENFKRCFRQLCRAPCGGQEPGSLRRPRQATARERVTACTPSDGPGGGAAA
UniProt P33535, whole entry, looked up: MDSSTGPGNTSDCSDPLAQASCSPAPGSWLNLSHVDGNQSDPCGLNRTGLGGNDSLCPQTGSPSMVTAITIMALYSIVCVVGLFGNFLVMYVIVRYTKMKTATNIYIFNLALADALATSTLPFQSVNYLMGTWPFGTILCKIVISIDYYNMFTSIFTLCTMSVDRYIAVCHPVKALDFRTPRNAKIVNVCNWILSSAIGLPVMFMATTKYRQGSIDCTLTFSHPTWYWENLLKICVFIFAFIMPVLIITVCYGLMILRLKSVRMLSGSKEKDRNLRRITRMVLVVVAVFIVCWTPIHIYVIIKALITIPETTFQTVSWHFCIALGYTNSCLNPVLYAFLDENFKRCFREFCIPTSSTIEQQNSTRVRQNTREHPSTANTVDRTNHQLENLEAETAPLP

Experiment [1] in a line: Ratio of affinity against Opioid receptor kappa 1 to that of Opioid receptor delta 1 expressed as selectivity ratio.
The target of experiment [2] is Opioid receptors; mu & delta (Rattus norvegicus) (UniProt P33533+P33535). Nature of the experiment: Ratio of affinity against Opioid receptor mu 1 to that of Opioid receptor delta 1 expressed as selectivity ratio. Type of experiment: protein assay.

Regarding `Oc1ccc2c3c1O[C@H]1c4[nH]c5ccccc5c4C[C@@]4(O)[C@@H](C2)N(CC2CC2)CC[C@]314` [NALTRINDOLE], the figures for the Selectivity ratio in experiment [1] and in experiment [2] were 138 and 120, respectively.
